{"source": "PubChem BioAssay AID556", "about": "(SRMLSC, 2006)", "note": "Only a part is listed here, and it is no random draw. Some of these compounds have results that are not shown, active ones among them. The source made the active and inactive calls.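 The calls were made as follows: active = the 320 compounds with the highest percent inhibition in the single-dose primary screen, excluding strongly autofluorescent ones (cut at about 32% in these data); inactive = the rest, inconclusive results apart.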", "data": [{"test_system": "diphosphomevalonate decarboxylase (Streptococcus pneumoniae D39)", "experiment": "S. pneumoniae DPM-DC inhibitors, primary screen, biochemical, PK/LDH-coupled NADH fluorescence (AID 556)", "settings": "purified DPM-DC, at 10 µM", "values": [{"smiles": "O=C(OC1CN2CCC1CC2)C(CO)(c1ccccc1)c1ccccc1", "note": "(configuration not stated)", "outcome": "inactive"}, {"smiles": "CN(C)c1cccc(C(=O)NCC2(N(C)C)CCCCC2)c1", "outcome": "inactive"}]}]}
